Experimental data from PubChem BioAssay (EPA / NIEHS).
This is a selection; strong and weak results do not stand in their true shares. Calls of active or inactive are those of the source. The calls were made as follows: active = hit-call score of the fitted dose curve at least 0.9, where 1 is the maximum; inactive = score below 0.9.

Assay: ATG_PPRE_CIS: Attagene CIS-FACTORIAL HepG2 Assay for human Peroxisome Proliferator-activated Response Element (PPRE) (AID 2282958)
Details: HepG2 PPRE cis-element reporter, Attagene transcription factor profiling; actives raise or lower the signal

outcome, inactive:
C=C(C)[C@@H]1CCC2=CCC[C@@H](C)[C@]2(C)C1
CN(C[C@@H](CC[N+]12CCC(C3CCCCC3)(CC1)CC2)c1ccc(Cl)c(Cl)c1)C(=O)c1cc(C(F)(F)F)cc(C(F)(F)F)c1
COc1c2ccoc2cc2oc(=O)ccc12
COCc1nnc(-c2ccc[n+]([O-])c2)n1-c1c(Cl)c(Cl)cc2[nH]c(=O)c(=O)[nH]c12
CCCCNC(=S)NCCCC
CC(CO)c1ccccc1 (centres undefined)
CCCCC(CC)COCC1CO1 (centres undefined)
OC[C@@H](O)[C@H](O)[C@@H](O)[C@@H](O)CO
CC(=O)S[C@H](C(=O)N[C@H]1Cc2ccccc2[C@H]2CCC[C@@H](C(=O)O)N2C1=O)C(C)C
CCO[Si](CCC#N)(OCC)OCC
O=C1CCCCCCCCCCC(=O)OCCO1
O=C(O)c1ccccc1
Cc1ccc(C(C)(C)C)c(O)c1
Brc1ccc(Br)c(Br)c1
NCCOCCOCCN
CC(C)(c1ccccc1)c1ccc(Nc2ccc(C(C)(C)c3ccccc3)cc2)cc1
CCCCCCCCCCCCCC
O=C(O)COCC(=O)O
CC(=O)O[C@H]1C[C@@H]2CC[C@@]1(C)C2(C)C
CCCCCC(=O)OCC
CCCCC(CC)C(=O)OC(C)C (centres undefined)
COc1ccccc1N=Nc1c(S(=O)(=O)O)cc2cc(S(=O)(=O)O)cc(NC(C)=O)c2c1O
C=CCOc1c(Br)cc(Br)cc1Br
O=C(Nc1ccc2c(c1)Cc1ccccc1-2)C(F)(F)F
COc1ccc(OC)c(OC)c1
CC/C=C\CC1=C(C)CCC1=O
Nc1ccc(Nc2ccccc2)cc1
C=CC(=O)OCCOCCOCC
CCCCCCCC(=O)O
C=CCCCCCCCCOC(C)=O
CC(=O)OC(C)c1ccccc1 (centres undefined)
CC(C)=CCCC(C)=CC#N
CSc1c(Cl)c(Cl)c(Cl)c(Cl)c1Cl
CCCCCCCCCO
Cc1ccc(N/N=c2\c(=O)cc/c(=N/Nc3ccc(S(=O)(=O)O)cc3)c2=O)c(C)c1
C=C(C)C(=O)OCCO
CCCC(=O)C(CC)Sc1ccoc1C (centres undefined)
COCCCOc1ccnc(CS(=O)c2nc3ccccc3[nH]2)c1C (centres undefined)
CCCCc1ccc2c(n1)[C@@H](c1ccc(OC)cc1C[C@H](C)C(=O)O)[C@H](C(=O)O)[C@H]2c1ccc2c(c1)OCO2
